What was measured:
SJSA-1 [1] = assay: Protocol A: SJSA-1 growth inhibition, sulphorhodamine B (SRB) method; details: Homo sapiens, SJSA-1, 72 h, read-out: SJSA-1 IC50 (Protocol A)
SJSA-1 [2] = assay: Protocol B: SJSA-1 CellTiter-Glo Luminescent Cell Viability Assay; details: Homo sapiens, SJSA-1, 72 h, read-out: SJSA1 IC50 (Protocol B)

IC50 (SJSA-1 [1])	SMILES	IC50 (SJSA-1 [2])
330 nM	CC(C)(O)c1cc(F)c2c(c1)C(=O)N(Cc1ccc(Cl)cc1)[C@@]2(OCC1(CO)CC1)c1ccc(Cl)cc1 [Example 2, (3R)-3-(4-chlorophenyl)-2-[(4-chlorophenyl)methyl]-4-fluoro-3-{[1-(hydroxymethyl)cyclopropyl]methoxy}-6-(2-hydroxypropan-2-yl)-2,3-dihydro-1H-isoindol-1-one]	460 nM
	CC[C@@](O)(c1cc(F)c2c(c1)C(=O)N(Cc1ccc(C#N)cc1)[C@@]2(O[C@H]1C[C@@H](O)C1)c1ccc(Cl)cc1)C1CCN(C)CC1 [Example 130, 4-{[(1R)-1-(4-chlorophenyl)-7-fluoro-5-[(1S)-1-hydroxy-1-(1-methylpiperidin-4-yl)propyl]-3-oxo-1-[cis-3-hydroxycyclobutoxy]-2,3-dihydro-1H-isoindol-2-yl]methyl}benzonitrile]	230 nM

Source: patent publication US20230313313A1, “BIOMARKERS FOR CANCER THERAPY USING MDM2 ANTAGONISTS” (OTSUKA PHARMACEUTICAL CO., LTD., priority 2020, published 2023)
